Test results from ChEMBL document CHEMBL1143970, “Structure-activity relationships and CoMFA of N-3 substituted phenoxypropyl piperidine benzimidazol-2-one analogues as NOP receptor agonists with analgesic properties” (Bioorg Med Chem, 2008).

The chains behind the UniProt entries cited, without tags or fusion partners.
UniProt P41143, whole entry: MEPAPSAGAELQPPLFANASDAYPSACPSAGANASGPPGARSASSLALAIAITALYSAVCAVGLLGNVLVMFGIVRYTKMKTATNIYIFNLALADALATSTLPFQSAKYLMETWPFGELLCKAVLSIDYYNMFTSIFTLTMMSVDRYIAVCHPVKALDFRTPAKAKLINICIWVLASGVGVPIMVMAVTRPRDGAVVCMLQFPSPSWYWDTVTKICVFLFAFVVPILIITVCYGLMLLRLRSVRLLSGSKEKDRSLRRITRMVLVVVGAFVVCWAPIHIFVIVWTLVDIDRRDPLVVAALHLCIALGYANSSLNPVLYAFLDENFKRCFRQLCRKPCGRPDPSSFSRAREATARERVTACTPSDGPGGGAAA
UniProt P41144, whole entry: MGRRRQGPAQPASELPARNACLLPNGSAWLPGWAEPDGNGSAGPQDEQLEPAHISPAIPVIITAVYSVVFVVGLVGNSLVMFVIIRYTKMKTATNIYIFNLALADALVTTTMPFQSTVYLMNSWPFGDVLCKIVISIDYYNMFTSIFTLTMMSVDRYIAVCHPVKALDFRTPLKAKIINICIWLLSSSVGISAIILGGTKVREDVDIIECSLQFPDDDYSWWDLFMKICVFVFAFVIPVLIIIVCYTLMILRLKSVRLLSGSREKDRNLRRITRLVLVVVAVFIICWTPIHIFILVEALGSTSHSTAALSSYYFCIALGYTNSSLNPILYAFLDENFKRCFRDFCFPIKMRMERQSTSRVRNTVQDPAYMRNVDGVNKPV
UniProt P41146, whole entry: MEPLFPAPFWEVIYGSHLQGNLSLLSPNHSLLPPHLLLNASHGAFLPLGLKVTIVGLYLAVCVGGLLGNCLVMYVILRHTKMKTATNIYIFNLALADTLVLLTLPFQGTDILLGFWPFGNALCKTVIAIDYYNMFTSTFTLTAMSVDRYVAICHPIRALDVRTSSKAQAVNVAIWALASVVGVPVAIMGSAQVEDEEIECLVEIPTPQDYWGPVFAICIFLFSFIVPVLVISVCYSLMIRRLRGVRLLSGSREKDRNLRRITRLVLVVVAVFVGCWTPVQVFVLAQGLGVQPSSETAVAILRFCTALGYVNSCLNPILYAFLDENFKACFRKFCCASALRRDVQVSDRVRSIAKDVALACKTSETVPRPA
UniProt P35372, whole entry: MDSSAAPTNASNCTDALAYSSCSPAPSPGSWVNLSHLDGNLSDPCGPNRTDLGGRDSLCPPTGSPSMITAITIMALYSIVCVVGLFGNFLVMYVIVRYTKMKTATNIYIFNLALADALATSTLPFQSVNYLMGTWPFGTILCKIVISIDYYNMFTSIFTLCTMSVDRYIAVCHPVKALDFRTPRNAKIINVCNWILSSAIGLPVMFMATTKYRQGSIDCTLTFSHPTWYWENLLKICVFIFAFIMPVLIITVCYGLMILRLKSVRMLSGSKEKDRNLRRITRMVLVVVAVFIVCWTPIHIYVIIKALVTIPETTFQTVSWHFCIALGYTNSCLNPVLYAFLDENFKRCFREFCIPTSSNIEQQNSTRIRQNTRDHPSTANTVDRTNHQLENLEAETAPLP

Assays:
Mus musculus [1] = assay: Antinociceptive activity against formalin-induced paw in iv dosed ICR mouse assessed as reduction of licking time during 0 to 5 mins
Mus musculus [2] = assay: Antinociceptive activity against formalin-induced paw in iv dosed ICR mouse assessed as reduction of licking time in during 0 to 30 mins
[3] = molecular target: Delta-type opioid receptor (Homo sapiens, UniProt P41143); assay: Displacement of [3H]naltrindole from human delta opioid receptor expressed in deltaC6 cells; details: c6
[4] = molecular target: Kappa-type opioid receptor (Cavia porcellus, UniProt P41144); assay: Displacement of [3H]U-69593 from kappa opioid receptor in guinea pig brain cortical tissue
Nociceptin receptor = Nociceptin receptor (Homo sapiens, UniProt P41146); assay: Displacement of [3H]nociceptin from human NOP receptor expressed in CHO cells
Mu-type opioid receptor = Mu-type opioid receptor (Homo sapiens, UniProt P35372); assay: Displacement of [3H]Diprenorphine from human mu opioid receptor expressed in CHO cells

SMILES: COc1ccc(C)c(OC(CCN2CCC(n3c(=O)n(Cc4ncn[nH]4)c4ccccc43)CC2)C(C)C)c1 (stereo not given)
- ED50 (Mus musculus [1]): 2.62 µmol/kg
- ED50 (Mus musculus [2]): 0.65 µmol/kg
- Log Ki [3]: -5.89
- Log Ki [4]: -6.06

SMILES: COc1ccc(C)c(OC(CCN2CCC(n3c(=O)n(Cc4ncn(C)n4)c4ccccc43)CC2)C(C)C)c1 (stereo not given)
- Log Ki (Nociceptin receptor): -7.02
- Log Ki (Mu-type opioid receptor): -7

SMILES: COc1ccc(C)c(OC(CCN2CCC(n3c(=O)n(Cc4nnn[nH]4)c4ccccc43)CC2)C(C)C)c1 (stereo not given)
- Log Ki (Nociceptin receptor): -6.04
- Log Ki (Mu-type opioid receptor): -5.99

SMILES: COc1ccc(C)c(OC(CCN2CCC(n3c(=O)n(Cc4ncon4)c4ccccc43)CC2)C(C)C)c1 (stereo not given)
- Log Ki (Nociceptin receptor): -8.62
- Log Ki (Mu-type opioid receptor): -7.11

SMILES: COc1ccc(C)c(OC(CCN2CCC(n3c(=O)n(Cn4ccnc4)c4ccccc43)CC2)C(C)C)c1 (stereo not given)
- Log Ki (Nociceptin receptor): -8.38
- Log Ki (Mu-type opioid receptor): -6.92

SMILES: COc1ccc(C)c(OC(CCN2CCC(n3c(=O)n(Cc4cccs4)c4ccccc43)CC2)C(C)C)c1 (stereo not given)
- Log Ki (Nociceptin receptor): -8.85
- Log Ki (Mu-type opioid receptor): -7.35

SMILES: COc1ccc(C)c(OC(CCN2CCC(n3c(=O)n(Cn4cccn4)c4ccccc43)CC2)C(C)C)c1 (stereo not given)
- Log Ki (Nociceptin receptor): -8.48
- Log Ki (Mu-type opioid receptor): -6.65

SMILES: COc1ccc(C)c(OC(CCN2CCC(n3c(=O)n(Cc4ncnn4C)c4ccccc43)CC2)C(C)C)c1 (stereo not given)
- Log Ki (Nociceptin receptor): -7.93
- Log Ki (Mu-type opioid receptor): -7.32

SMILES: COc1ccc(C)c(OC(CCN2CCC(n3c(=O)n(Cc4cscn4)c4ccccc43)CC2)C(C)C)c1 (stereo not given)
- Log Ki (Nociceptin receptor): -8.92
- Log Ki (Mu-type opioid receptor): -7.37

SMILES: COc1ccc(C)c(OC(CCN2CCC(n3c(=O)n(Cc4noc(C)n4)c4ccccc43)CC2)C(C)C)c1 (stereo not given)
- Log Ki (Nociceptin receptor): -7.43
- Log Ki (Mu-type opioid receptor): -6.69

SMILES: COc1ccc(C)c(OC(CCN2CCC(n3c(=O)n(Cc4cocn4)c4ccccc43)CC2)C(C)C)c1 (stereo not given)
- Log Ki (Nociceptin receptor): -8.6
- Log Ki (Mu-type opioid receptor): -6.98

SMILES: COc1ccc(C)c(OC(CCN2CCC(n3c(=O)n(Cc4c[nH]cn4)c4ccccc43)CC2)C(C)C)c1 (stereo not given)
- Log Ki (Nociceptin receptor): -8.43
- Log Ki (Mu-type opioid receptor): -6.67

SMILES: COc1ccc(C)c(OC(CCN2CCC(n3c(=O)n(Cc4n[nH]c(=O)[nH]4)c4ccccc43)CC2)C(C)C)c1 (stereo not given)
- Log Ki (Nociceptin receptor): -8.23
- Log Ki (Mu-type opioid receptor): -7.6

SMILES: COc1ccc(C)c(OC(CCN2CCC(n3c(=O)n(Cc4nnc(C)[nH]4)c4ccccc43)CC2)C(C)C)c1 (stereo not given)
- Log Ki (Nociceptin receptor): -7.38
- Log Ki (Mu-type opioid receptor): -6.92

SMILES: COc1ccc(C)c(OC(CCN2CCC(n3c(=O)n(Cc4cnccn4)c4ccccc43)CC2)C(C)C)c1 (stereo not given)
- Log Ki (Nociceptin receptor): -8.23
- Log Ki (Mu-type opioid receptor): -7.12

SMILES: COc1ccc(C)c(OC(CCN2CCC(n3c(=O)n(Cc4noc(C(C)(C)C)n4)c4ccccc43)CC2)C(C)C)c1 (stereo not given)
- Log Ki (Nociceptin receptor): -5.93
- Log Ki (Mu-type opioid receptor): -6.28

SMILES: COc1ccc(C)c(OC(CCN2CCC(n3c(=O)n(Cc4ccccn4)c4ccccc43)CC2)C(C)C)c1 (stereo not given)
- Log Ki (Nociceptin receptor): -8.31
- Log Ki (Mu-type opioid receptor): -7.28

SMILES: COc1ccc(C)c(OC(CCN2CCC(n3c(=O)n(Cc4c(C)noc4C)c4ccccc43)CC2)C(C)C)c1 (stereo not given)
- Log Ki (Nociceptin receptor): -8.45
- Log Ki (Mu-type opioid receptor): -7.25

SMILES: COc1ccc(C)c(OC(CCN2CCC(n3c(=O)n(Cn4ccnc4C)c4ccccc43)CC2)C(C)C)c1 (stereo not given)
- Log Ki (Nociceptin receptor): -8.31
- Log Ki (Mu-type opioid receptor): -6.91

SMILES: COc1ccc(C)c(OC(CCN2CCC(n3c(=O)n(Cc4csc(C)n4)c4ccccc43)CC2)C(C)C)c1 (stereo not given)
- Log Ki (Nociceptin receptor): -7.76
- Log Ki (Mu-type opioid receptor): -7.41

SMILES: COc1ccc(C)c(OC(CCN2CCC(n3c(=O)n(Cc4ccncc4)c4ccccc43)CC2)C(C)C)c1 (stereo not given)
- Log Ki (Nociceptin receptor): -7.54
- Log Ki (Mu-type opioid receptor): -7.37

SMILES: COc1ccc(C)c(OC(CCN2CCC(n3c(=O)n(Cc4nc(C)no4)c4ccccc43)CC2)C(C)C)c1 (stereo not given)
- Log Ki (Nociceptin receptor): -7.53
- Log Ki (Mu-type opioid receptor): -7.02

SMILES: COc1ccc(C)c(OC(CCN2CCC(n3c(=O)n(Cc4cccnc4)c4ccccc43)CC2)C(C)C)c1 (stereo not given)
- Log Ki (Nociceptin receptor): -8.02
- Log Ki (Mu-type opioid receptor): -7.32

SMILES: COc1ccc(C)c(OC(CCN2CCC(n3c(=O)n(Cc4ncco4)c4ccccc43)CC2)C(C)C)c1 (stereo not given)
- Log Ki (Nociceptin receptor): -8.41
- Log Ki (Mu-type opioid receptor): -7.08

SMILES: COc1ccc(C)c(OC(CCN2CCC(n3c(=O)n(Cc4ncsn4)c4ccccc43)CC2)C(C)C)c1 (stereo not given)
- Log Ki (Nociceptin receptor): -8.77
- Log Ki (Mu-type opioid receptor): -7

SMILES: COc1ccc(C)c(OC(CCN2CCC(n3c(=O)n(Cc4cc(C)on4)c4ccccc43)CC2)C(C)C)c1 (stereo not given)
- Log Ki (Nociceptin receptor): -7.66
- Log Ki (Mu-type opioid receptor): -6.84

SMILES: COc1ccc(C)c(OC(CCN2CCC(n3c(=O)n(Cn4cncn4)c4ccccc43)CC2)C(C)C)c1 (stereo not given)
- Log Ki (Nociceptin receptor): -8.73
- Log Ki (Mu-type opioid receptor): -7.41

SMILES: COc1ccc(C)c(OC(CCN2CCC(n3c(=O)n(Cc4cnn[nH]4)c4ccccc43)CC2)C(C)C)c1 (stereo not given)
- Log Ki (Nociceptin receptor): -8.1
- Log Ki (Mu-type opioid receptor): -6.74

SMILES: COc1ccc(C)c(OC(CCN2CCC(n3c(=O)n(Cc4ccsc4)c4ccccc43)CC2)C(C)C)c1 (stereo not given)
- Log Ki (Nociceptin receptor): -8.82
- Log Ki (Mu-type opioid receptor): -7.41
